In patent publication US20090209615A1 (published 2009):

Test system: C57BL/6J mice, MCA occlusion/reperfusion
Test: Transient focal cerebral ischemia (MCA occlusion/reperfusion): infarct volume and neurological deficits
Settings: mouse, in vivo

O=S(=O)(CC1CS1)c1ccc(Oc2ccccc2)cc1 (stereo not shown) [Compound 1, (4-Phenoxyphenylsulfonyl)methylthiirane]
window of therapeutic intervention after insult: 6 h
